Key:
CCR6^+IL-17^+ cells = test: IL-17 expression in sorted CCR6+IL-17+ memory T cells cultured in IL-2 medium; format: cell-based, human; conditions: IL-2-supplemented medium, 6 days, restimulation
Description: (§1) Peripheral Blood Mononuclear Cells (PBMCs) from healthy individuals (New York Blood Center, New York, N.Y.) were prepared using Ficoll-paque plus (GE Amersham, Uppsala, Sweden). Whole blood samples from rheumatoid arthritis patients were purchased from Bioreclamation (New York, N.Y.) and were processed similar to healthy donor blood. All healthy donor and patient samples were consented prior to purchase, were none-identifiable and approved by institutional human subjects board. CD4^+ T cells were isolated using Dynal CD4 Positive Isolation Kit (Invitrogen, Carlsbad, Calif.) directly from purified PBMCs and were >99% pure. CD4^+ T cells were sorted by FACS ARIA cell sorter (BD, San Jose, Calif.) into CD45RO^+ CD25^− memory T (TM) cells. TM cells were activated either by anti-CD3 and anti-CD28 (aCD3/aCD28) coated beads (1:4 beads:cells ratio) for 18-24 hours, or by Phorbol 12-myristate 13-acetate (PMA) and ionomycin for 4 hours and further FACS sorted based on CCR6 and IL-17 expression into CCR6^−IL-17^−, CCR6^+IL-17^+, or CCR6^+ IL-17^− subsets (as determined by secretion assay labeling, see below). Sorted cells (>99% pure) were cultured in serum-free Xvivo-15 medium (Lonza, Wakersville, Md.) at 37° C. and 5% CO2 for 6-7 days prior to restimulation with PMA and ionomycin (see below). […]

[1] = test system: CCR6^+ IL-17^− memory T cells from wild-type C57B/6 mice; test: IL-17 production by sorted mouse CCR6+IL-17- memory T cells cultured with IL-2; format: cell-based; conditions: 6 days in culture with IL-2; not seen in CCR6- cells
Description: Wild-type C57B6/J mice were purchased from Jackson Laboratories (Bar Harbor, Me.) and all mice were used in accordance with a protocol approved by the animal care and use committee of Sirtris pharmaceuticals. Single cell suspensions were prepared from spleens and peripheral lymph nodes following red blood cell lysis (Sigma-Aldrich, USA). CD4^+ T cells were enriched by magnetic cell sorting using the mouse CD4^+ T cell isolation kit II (Miltenyi Biotec, Auburn, Calif.) in accordance with manufacturers instructions, and these cells were stimulated for 18-24 hours using plate-bound anti-CD3 (eBioscience) and anti-CD28 (BD Biosciences) antibodies as previously described (Sundrud, et al., Science (New York, N.Y.) 2009 324: 1334-1338). Activated T cells were then stained for cell surface receptors and subjected to mouse IL-17 capture assay for FACS sorting into CD62L^loCCR6^31 IL-17^−, CD62L^loCCR6^+IL-17^−, or CD62L^loCCR6^+IL-17^+ subsets (see below). Sorted mouse T cell populations were cultured in DMEM medium (Mediatech, Inc., USA) containing 10% FCS (Invitrogen). To expand sorted T cell populations, 10 U/mL recombinant human IL-2 (BD Biosciences) and mouse CD3/CD28 T cell expander beads (1:2 beads:cells ratio) (Invitrogen) were added and cells were cultured for 6 days prior to restimulation. […]

[2] = test system: CCR6^+IL-17^− TM cells from RA patients; test: IL-17 induction in CCR6+IL-17- memory T cells from rheumatoid arthritis patients cultured with IL-2; format: cell-based, human; conditions: culture with IL-2, 7 days; not seen in CCR6- cells
Description: as §1

[3] = test system: CCR6^+IL-17^+ and CCR6^+IL-17^− T cells; test: Proliferation of CFSE/eFluor 670-labelled CCR6+IL-17+ and CCR6+IL-17- T cells in response to IL-2; format: cell-based, human; conditions: IL-2 stimulation, dye dilution day 2 and 4
Description: as §1

IL-2: recombinant human IL-2 (BD Biosciences), γc-cytokine, used at 10 U/mL
IL-17 expression in cells initially sorted as CCR6+IL-17+ (CCR6^+IL-17^+ cells): maintained high-level IL-17 expression
IL-17 production by mouse CCR6+ IL-17- memory T cells [1]: capable of producing IL-17
IL-17 expression in CCR6+ IL-17- memory T cells from RA patients [2]: upregulated IL-17
proliferation of CCR6+IL-17+ versus CCR6+IL-17- T cells [3]: proliferate similarly
